“Also recorded” adds a separate entry of the source. Marks after values point to notes of the source that are not given here.
What was measured:
[1] = In vitro plasma and serum stability, rabbit; type: in vitro ADME; conditions: 37°C
Method: (§1) The stability of peptides is analysed in serum and plasma. The peptides are incubated at 37°C in plasma or serum and samples taken at approx. 9 regular intervals between t=0 and t=156 min are analysed by HPLC.
(§2) This is done by subsequent injections of the drug, plasma, and a co-injection with the drug and the plasma, followed by optimisation of the LC method parameters until a satisfactory separation is obtained. Three parallel experiments are performed for each plasma type.100 ml of peptide is mixed with 900 ml plasma at t = 0 and incubated at 37°C (drug-plasma mixture conc. 0.1 mg/ml). Samples of 100 ml of the drug-plasma mixture are removed at appropriate intervals and the degradation stopped by precipitation of the sample with 10 ml MeCN:TFA 50:50 v/v. A control plasma sample without the drug treated in the same manner is also taken. The plasma samples are centrifuged for 15 min. at 12,000 rpm (Eppendorf centrifuge) at ambient temperature. The resulting supernatant solution is transferred to 300 ml HP autosamler vials and analyzed by HPLC. The samples are analyzed in the following order: blank, the peptide at 0.1 mg/mL, the plasma without the peptide, the three parallel samples for t = 0, the three parallel samples for t = 5 min. the three parallel samples for t = 10 min. etc. And finally the three parallel samples for t = 0 are repeated to make sure that there have been no degradation or other failure during the analyses. The sample concentrations (peak height in mAU) are plotted vs. time and fitted to a function describing a mono exponential decay (Excel). […] Table 7. Results of in vitro stability test in plasma and serum, T1/2 in min and hrs

[2] = In vitro plasma and serum stability, human; type: in vitro ADME; conditions: for T1/2 PLASMA, HEPARIN HUMAN / T1/2 SERUM HUMAN: 37°C
Method: as §1, §2

[3] = In vitro plasma stability, rat; type: in vitro ADME; conditions: 37°C
Method: as §1
This is done by subsequent injections of the drug, plasma, and a co-injection with the drug and the plasma, followed by optimisation of the LC method parameters until a satisfactory separation is obtained. Three parallel experiments are performed for each plasma type.[…] at t = 0 and incubated at 37°C (drug-plasma mixture conc. 0.1 mg/ml). Samples of 100 ml of the drug-plasma mixture are removed at appropriate intervals and the degradation stopped by precipitation of the sample with 10 ml MeCN:TFA 50:50 v/v. A control plasma sample without the drug treated in the same manner is also taken. The plasma samples are centrifuged for 15 min. at 12,000 rpm (Eppendorf centrifuge) at ambient temperature. The resulting supernatant solution is transferred to 300 ml HP autosamler vials and analyzed by HPLC. The samples are analyzed in the following order: blank, the peptide at 0.1 mg/mL, the plasma without the peptide, the three parallel samples for t = 0, the three parallel samples for t = 5 min. the three parallel samples for t = 10 min. etc. […]

[4] = Stability in acidic solution (statement only); type: physicochemical
[5] = system: ventricular reentry arrhytmias; assay: Ventricular reentry arrhythmias in dogs after coronary artery occlusion; type: in vivo
Method: Three dogs were studied in the anesthetized, open chest state to facilitate electrode placement for mapping. α-chloralose was given as a bolus (200 mg/kg) and then a constant Infusion at 8 mg/kg/hr (dissolved in polyethylene glycol, MW=200). The femoral vein and artery was cannulated for administration of fluid and drugs and for measurement of ascending aortic pressure, respectively.
The sinus node was clamped and the atrial appendage was paced with a programmable stimulator with constant current outputs at two times diastolic threshold. Pacing rate was ≥200 b/min to control heart rates. […] Endocardial Effective Refractory Period (ERP) was measured by the standard extrastimulus technique. Late ventricular diastolic threshold was measured during each intervention; the pacing current was four times threshold.
Test sites were chosen along the shaft of 16 pole needles (J. Kassell, Fayetteville, NC); each pole completely surrounds the needle shaft to prevent directionality of needle orientation from recording of adjacent Purkinje strands. Six bipolar electrograms (1 mm spacing) were recorded sequentially down the shaft of the needle by amplifying up to 1000 times, filtering from 3-1300 Hz and recording via oscilloscope during atrial pacing. Four intramural electrograms are recorded on each multipolar needle. […]

excisional wounds = assay: Excisional wound healing in mice (planned); type: in vivo; conditions: topically or parenterally, 5 days
Method: To examine wound healing in vivo, Compound 2 and Compound 40 is administered topically (concentration range 10-9 - 10-6 mol/l in aqueous gel) and parenterally (10-10 - 10-6 mol/kg) two to four times daily to mice. Two round excisional wounds are created down the panniculus camosus with a 6-mm punch biopsy on the back skin of each mouse. After 5 days treatment with compound 2 and compound 40 the effect of skin is evaluated histologically by microscopy of biopsies and wound healing is measured by daily measurements of the diameter of the wound.

GJIC in cardiomyocytes = assay: Patch clamp measurement of intercellular conductance (Gj) between cardiomyocyte pairs; type: cell-based, guinea pig; conditions: 10^-8 M, steady-state after about 400 seconds of stimulation, five experiments

Substance	T1/2 PLASMA, HEPARIN RABBIT [1]	Human plasma half life [2]	other results
H-Gly-Pro-Hyp-Gly-Ala-Gly-OH [AAP, reference compound]	4.4 min ±12%	0.13 h	T1/2 PLASMA, HEPARIN HUMAN [2]: 7.6 min ±6%
HPP-PHypGAGKKKKKK-NH2	–	>5 h	–
Cyclo(retro-AAP-10-Asn)	* BR > 5 hrs	>5 h	T1/2 SERUM HUMAN [2]: * > 5 hrs
H-Gly-Ala-Gly-Hyp-Pro-Tyr-NH2 [AAP10, reference compound]	9.5 min ±12%	0.217 h	T1/2 SERUM RABBIT ([1]; serum): 2.7 min ± 4%; T1/2 PLASMA, HEPARIN RAT [3]: 8.2 min ± 13%; half life ([2]; plasma and serum): less than 10 minutes
CF3C(O)-AAP10-NH2	3.8 hrs ± 0.5%	4 h	T1/2 SERUM HUMAN [2]: 3.1 hrs ± 10%
[Pro^4]AAP10-NH2	–	0.083 h	–
H-DY-DN-G-NH2	–	4.93 h	T1/2 PLASMA, HEPARIN HUMAN [2]: 296min ± 34%
H-AAP-10-K6-OH	–	–	Human plasma half life, min. ([2]; measured in EDTA plasma): 87* min.
3-(4-hyd roxyphenyl)propionyl-Pro-Hyp-Gly-Ala-Gly-OH [HP5, reference compound]	3.7 min ±1%	–	–
Ac-D-Tyr-D-Pro-D-4Hyp-Gly-D-Ala-Gly-NH2 [Compound 2]	* > 5 hrs	>5 h	stability in acidic solution [4]: stable in acidic solution; Effective refractory period ([5]; second dog, second site of induction (septal), throughout the testing period): 144 ms; mean arterial pressure (MAP) ([5]; three incremental IV doses): did not alter; also recorded: no change; skin structure (excisional wounds): will not affect skin structure alone; ΔGj (relative change of intercellular conductance) (GJIC in cardiomyocytes): +120 ± 46%; T1/2 PLASMA, HEPARIN HUMAN [2]: * > 5 hrs; T1/2 SERUM HUMAN [2]: * > 5 hrs; stability in plasma and serum compared with AAP10 ([2]; plasma and serum): considerably more stable
des-Hyp^4-[Asn^5]AAP-10-NH2	–	0.12 h	–
AcGNY	–	35.67 h	–
HPP-PHypGAGKKKKKK-OH	–	0.033 h	–
GNY	–	1.05 h	–

Source: patent EP1370276B1, “INTERCELLULAR COMMUNICATION FACILITATING COMPOUNDS AND THEIR MEDICAL USE” (Zealand Pharma A/S, priority 2001, dated 2002)
